{"sequences": {"note": "The chains behind the UniProt entries cited, without tags or fusion partners.", "UniProt Q9NP58, whole entry": "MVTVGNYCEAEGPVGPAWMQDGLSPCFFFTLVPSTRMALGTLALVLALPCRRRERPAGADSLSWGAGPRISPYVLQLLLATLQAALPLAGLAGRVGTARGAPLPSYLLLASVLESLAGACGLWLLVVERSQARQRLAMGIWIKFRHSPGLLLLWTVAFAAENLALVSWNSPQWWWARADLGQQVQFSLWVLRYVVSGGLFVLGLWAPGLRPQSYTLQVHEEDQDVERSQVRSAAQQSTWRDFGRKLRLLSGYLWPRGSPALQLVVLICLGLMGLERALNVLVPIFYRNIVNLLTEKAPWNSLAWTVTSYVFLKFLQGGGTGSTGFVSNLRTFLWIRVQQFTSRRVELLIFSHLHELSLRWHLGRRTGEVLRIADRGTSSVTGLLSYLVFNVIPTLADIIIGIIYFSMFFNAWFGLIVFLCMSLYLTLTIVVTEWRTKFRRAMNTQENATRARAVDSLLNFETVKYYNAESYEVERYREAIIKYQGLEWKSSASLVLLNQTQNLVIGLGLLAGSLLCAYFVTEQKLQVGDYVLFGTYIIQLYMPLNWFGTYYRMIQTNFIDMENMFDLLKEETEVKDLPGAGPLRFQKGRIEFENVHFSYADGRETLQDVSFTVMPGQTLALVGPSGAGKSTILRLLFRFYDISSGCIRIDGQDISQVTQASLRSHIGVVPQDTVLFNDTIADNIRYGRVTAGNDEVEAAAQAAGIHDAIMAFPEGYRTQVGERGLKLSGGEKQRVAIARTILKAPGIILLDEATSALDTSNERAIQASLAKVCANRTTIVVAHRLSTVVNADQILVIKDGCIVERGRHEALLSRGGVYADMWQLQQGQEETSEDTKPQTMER"}, "source": "PubChem BioAssay AID602162", "about": "(NMMLSC, 2011)", "note": "The list shows a part of the results, in another mix than the full data. The source made the active and inactive calls.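 How the source made its calls: active means fluorescence ratio to DMSO below 75%, the collection mean minus 3 SD; inconclusive means too few cells collected in the well; inactive means the rest.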", "data": [{"molecular_target": "ATP-binding cassette sub-family B member 6 (Homo sapiens) (UniProt Q9NP58)", "experiment": "ABCB6 transporter inhibitors, primary screen, K562-ABCB6 cells, flow cytometry, MLPCN library (AID 602162);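 further: signal is porphyrin accumulated inside mitochondria; 100% equals median channel fluorescence of DMSO control wells; lower ratio means ABCB6 inhibition with less porphyrin fluorescence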", "settings": "K562-ABCB6 porphyrin accumulation, 1 h, at 10 µM, stronger effect = lower value", "values": [{"smiles": "O=[N+]([O-])c1cc([N+](=O)[O-])c(Nc2ccccn2)c([N+](=O)[O-])c1", "fluorescence ratio to DMSO": "inactive: 101%"}]}]}
